From ChEMBL document CHEMBL2407041, “Identification of potent Yes1 kinase inhibitors using a library screening approach” (Bioorg Med Chem Lett, 2013)

By UniProt entry, the sequences of proteins in these tests, tags left out.
UniProt P07947, whole entry: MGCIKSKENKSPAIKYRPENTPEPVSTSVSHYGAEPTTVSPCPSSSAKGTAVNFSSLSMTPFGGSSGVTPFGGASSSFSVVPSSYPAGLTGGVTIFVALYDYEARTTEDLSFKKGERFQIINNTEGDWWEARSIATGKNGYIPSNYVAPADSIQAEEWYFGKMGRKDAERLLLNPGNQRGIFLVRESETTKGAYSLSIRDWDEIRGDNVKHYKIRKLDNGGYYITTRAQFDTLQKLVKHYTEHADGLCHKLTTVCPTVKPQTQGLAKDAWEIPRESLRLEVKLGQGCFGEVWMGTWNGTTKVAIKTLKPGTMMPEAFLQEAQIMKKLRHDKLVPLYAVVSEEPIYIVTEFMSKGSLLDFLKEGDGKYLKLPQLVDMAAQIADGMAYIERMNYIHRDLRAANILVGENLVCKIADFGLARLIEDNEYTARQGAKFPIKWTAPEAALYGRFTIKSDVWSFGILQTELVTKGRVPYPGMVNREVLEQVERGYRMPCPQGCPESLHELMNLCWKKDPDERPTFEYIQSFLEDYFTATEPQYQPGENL

Tests used:
[1] = target: T1, Tyrosine-protein kinase Yes (Homo sapiens, UniProt P07947); test: Inhibition of Yes1 (unknown origin) assessed as kinase-dependent enzymatic production of ADP from ATP using coupled luminescence-based reaction by ADP-Glo kinase assay
[2] = target: T1, Tyrosine-protein kinase Yes; test: Inhibition of Yes1 (unknown origin) by [gamma-33P]-ATP radiolabeled enzyme activity assay

Structure (SMILES): CCN1CCN(Cc2ccc(-c3cc4c(N[C@H](C)c5ccccc5)ncnc4[nH]3)cc2)CC1 [AEE-788]
- IC50 [1]: 0.0175 µM
- IC50 [2]: 0.0131 µM
